Experimental data taken from patent EP4834897A1, “COMPOUNDS WITH TWO AZAHETEROCYCLES SUBSTITUTED ISOINDOLINONE SKELETON AND USES THEREOF” (dated 2026).

The chains behind the UniProt entries cited, without tags or fusion partners.
UniProt Q96SW2, whole entry: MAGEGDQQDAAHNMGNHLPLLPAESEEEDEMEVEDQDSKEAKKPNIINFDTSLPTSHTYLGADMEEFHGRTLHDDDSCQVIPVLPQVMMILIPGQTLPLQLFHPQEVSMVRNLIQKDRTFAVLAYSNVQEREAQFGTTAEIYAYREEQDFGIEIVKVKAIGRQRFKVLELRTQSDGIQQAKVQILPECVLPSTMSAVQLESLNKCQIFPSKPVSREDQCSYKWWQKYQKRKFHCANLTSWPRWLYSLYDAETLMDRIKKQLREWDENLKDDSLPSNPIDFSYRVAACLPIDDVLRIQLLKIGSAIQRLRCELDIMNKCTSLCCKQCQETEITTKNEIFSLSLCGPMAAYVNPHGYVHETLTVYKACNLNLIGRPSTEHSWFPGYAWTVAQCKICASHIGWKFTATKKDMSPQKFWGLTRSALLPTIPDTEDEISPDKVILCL
UniProt P15170, whole entry: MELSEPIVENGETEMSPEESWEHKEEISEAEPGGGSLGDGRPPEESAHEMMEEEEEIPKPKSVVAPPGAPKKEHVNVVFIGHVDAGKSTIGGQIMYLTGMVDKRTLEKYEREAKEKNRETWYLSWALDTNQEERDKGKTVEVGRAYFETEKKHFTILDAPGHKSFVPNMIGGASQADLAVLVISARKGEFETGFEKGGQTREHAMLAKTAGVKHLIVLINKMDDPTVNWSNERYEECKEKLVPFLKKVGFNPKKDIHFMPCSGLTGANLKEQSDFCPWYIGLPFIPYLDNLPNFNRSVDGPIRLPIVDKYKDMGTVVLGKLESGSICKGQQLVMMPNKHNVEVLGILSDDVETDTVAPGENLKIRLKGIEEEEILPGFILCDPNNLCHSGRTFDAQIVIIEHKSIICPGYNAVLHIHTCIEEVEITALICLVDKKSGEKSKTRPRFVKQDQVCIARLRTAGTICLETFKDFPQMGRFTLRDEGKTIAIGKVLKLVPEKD
UniProt Q9UKS7, whole entry: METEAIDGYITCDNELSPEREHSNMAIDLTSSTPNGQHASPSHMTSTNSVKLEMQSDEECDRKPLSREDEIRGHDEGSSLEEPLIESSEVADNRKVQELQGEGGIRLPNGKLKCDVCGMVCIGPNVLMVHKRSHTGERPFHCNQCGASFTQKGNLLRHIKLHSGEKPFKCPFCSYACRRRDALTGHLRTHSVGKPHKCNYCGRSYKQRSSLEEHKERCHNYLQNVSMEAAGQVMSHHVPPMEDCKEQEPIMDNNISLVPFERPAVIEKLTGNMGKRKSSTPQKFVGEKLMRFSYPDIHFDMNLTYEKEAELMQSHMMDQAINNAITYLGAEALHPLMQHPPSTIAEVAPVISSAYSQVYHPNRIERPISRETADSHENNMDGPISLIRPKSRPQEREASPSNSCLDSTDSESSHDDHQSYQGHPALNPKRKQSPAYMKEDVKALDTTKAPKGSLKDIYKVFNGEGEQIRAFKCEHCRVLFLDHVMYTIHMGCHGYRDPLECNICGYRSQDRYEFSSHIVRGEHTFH
UniProt P48729, whole entry: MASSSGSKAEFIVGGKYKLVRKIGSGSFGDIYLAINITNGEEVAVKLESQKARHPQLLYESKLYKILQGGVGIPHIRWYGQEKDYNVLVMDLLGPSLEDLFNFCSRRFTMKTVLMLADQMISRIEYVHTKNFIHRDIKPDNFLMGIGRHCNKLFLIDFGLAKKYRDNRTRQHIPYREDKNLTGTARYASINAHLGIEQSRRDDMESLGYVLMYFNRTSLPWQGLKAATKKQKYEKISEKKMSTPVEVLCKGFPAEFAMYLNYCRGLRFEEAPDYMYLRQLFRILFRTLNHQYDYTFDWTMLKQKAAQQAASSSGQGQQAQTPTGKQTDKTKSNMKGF
UniProt P30291, whole entry: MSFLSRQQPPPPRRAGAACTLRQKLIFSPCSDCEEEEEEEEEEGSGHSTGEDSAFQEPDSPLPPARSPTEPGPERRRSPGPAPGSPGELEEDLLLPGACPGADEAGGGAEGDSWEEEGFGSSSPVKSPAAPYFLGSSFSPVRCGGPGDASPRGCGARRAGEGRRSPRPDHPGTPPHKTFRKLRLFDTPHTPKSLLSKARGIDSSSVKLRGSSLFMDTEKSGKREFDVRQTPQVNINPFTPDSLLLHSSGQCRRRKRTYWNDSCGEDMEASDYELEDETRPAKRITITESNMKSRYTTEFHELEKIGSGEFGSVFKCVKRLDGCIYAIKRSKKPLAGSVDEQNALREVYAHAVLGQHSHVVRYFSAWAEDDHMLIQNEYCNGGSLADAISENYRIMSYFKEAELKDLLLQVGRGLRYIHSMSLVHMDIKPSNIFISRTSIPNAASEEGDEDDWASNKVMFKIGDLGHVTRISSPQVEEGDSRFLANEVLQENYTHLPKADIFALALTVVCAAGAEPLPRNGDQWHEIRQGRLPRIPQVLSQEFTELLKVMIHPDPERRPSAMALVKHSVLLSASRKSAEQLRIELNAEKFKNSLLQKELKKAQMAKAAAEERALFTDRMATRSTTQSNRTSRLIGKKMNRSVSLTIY
UniProt Q13422, whole entry: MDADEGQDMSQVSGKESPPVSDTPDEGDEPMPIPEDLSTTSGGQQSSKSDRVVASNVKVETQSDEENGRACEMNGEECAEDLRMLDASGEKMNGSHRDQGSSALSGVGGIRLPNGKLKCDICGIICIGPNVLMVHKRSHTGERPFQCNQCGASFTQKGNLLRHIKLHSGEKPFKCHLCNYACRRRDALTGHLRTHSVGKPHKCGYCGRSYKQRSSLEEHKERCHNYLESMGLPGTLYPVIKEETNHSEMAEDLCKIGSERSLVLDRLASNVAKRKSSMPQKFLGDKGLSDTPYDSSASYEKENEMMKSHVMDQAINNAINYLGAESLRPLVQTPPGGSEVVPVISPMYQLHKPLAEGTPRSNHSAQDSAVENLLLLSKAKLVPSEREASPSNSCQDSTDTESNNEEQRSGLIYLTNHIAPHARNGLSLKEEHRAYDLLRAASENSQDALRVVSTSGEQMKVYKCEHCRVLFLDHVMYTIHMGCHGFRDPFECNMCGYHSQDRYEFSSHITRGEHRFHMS
UniProt Q9UKT9, whole entry: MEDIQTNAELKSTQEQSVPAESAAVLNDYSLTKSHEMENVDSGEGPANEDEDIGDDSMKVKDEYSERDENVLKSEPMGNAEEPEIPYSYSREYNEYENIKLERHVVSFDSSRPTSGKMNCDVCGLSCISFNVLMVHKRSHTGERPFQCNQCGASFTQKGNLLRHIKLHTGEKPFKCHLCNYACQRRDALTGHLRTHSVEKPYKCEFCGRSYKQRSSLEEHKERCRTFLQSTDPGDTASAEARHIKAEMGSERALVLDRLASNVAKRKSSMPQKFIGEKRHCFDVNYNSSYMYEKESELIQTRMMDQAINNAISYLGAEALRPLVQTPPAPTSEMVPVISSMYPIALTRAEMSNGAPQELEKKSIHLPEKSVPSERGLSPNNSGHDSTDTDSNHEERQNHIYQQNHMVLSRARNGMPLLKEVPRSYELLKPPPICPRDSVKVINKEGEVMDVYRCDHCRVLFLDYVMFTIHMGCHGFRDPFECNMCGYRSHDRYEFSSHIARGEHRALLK
UniProt Q16531, whole entry partner: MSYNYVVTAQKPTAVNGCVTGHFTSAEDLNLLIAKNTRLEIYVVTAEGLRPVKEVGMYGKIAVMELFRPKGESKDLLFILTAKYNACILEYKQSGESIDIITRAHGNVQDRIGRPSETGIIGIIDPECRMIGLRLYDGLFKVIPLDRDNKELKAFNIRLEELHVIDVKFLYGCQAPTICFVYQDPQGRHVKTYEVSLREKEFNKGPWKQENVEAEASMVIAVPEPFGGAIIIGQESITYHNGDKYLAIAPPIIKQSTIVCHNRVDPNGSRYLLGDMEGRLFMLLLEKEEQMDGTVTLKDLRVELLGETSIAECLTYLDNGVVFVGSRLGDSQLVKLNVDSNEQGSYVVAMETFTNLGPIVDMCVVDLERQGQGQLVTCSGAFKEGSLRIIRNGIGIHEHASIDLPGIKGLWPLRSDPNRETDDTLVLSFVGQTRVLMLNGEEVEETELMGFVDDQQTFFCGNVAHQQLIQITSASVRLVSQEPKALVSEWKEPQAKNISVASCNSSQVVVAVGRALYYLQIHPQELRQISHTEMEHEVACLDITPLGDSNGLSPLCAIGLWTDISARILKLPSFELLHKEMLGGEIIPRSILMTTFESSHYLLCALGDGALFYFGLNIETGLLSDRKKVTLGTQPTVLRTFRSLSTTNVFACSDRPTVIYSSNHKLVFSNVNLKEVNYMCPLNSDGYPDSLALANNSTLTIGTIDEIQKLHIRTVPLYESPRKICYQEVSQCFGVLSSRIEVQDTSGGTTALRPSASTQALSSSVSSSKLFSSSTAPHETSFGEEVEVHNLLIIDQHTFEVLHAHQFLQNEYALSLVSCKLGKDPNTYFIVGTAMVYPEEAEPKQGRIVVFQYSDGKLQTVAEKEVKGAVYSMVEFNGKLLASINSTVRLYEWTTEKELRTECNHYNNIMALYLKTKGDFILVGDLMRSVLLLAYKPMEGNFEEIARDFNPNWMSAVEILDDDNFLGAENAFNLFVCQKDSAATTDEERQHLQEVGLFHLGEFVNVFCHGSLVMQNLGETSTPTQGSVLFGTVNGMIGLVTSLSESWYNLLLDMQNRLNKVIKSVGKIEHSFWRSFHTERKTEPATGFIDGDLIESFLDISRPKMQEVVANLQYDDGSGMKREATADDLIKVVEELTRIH

test system: Human multiple myeloma cell (MM.1S); assay: Tumor cell proliferation inhibition (cell viability assay); conditions: MM.1S cells; 10 nM; 96 hours

Row | Structure (SMILES) | Inhibition Rate at 10 nM (%)
1 | O=C1CCC(N2Cc3c(ccc(CN4CCC(N5CC=C(c6cccc(Cl)c6Cl)CC5)C(F)(F)C4)c3F)C2=O)C(=O)N1 (centres unmarked) | 1b10 (80% ≤ 1b10 ≤ 100%)

same assay, conditions: MM.1S cells; 500 nM; 96 hours

Row | Structure (SMILES) | Inhibition Rate at 500 nM (%)
2 | O=C1CCC(N2Cc3c(ccc(CN4CCC(N5CC=C(c6cccc(Cl)c6Cl)CC5)C(F)(F)C4)c3F)C2=O)C(=O)N1 (centres unmarked) | 1b10 (80% ≤ 1b10 ≤ 100%)

test system: Human colon cancer cell (SW620); assay: as above; conditions: SW620 cells; 10 nM; 96 hours

Row | Structure (SMILES) | Inhibition Rate at 10 nM (%)
3 | O=C1CCC(N2Cc3c(ccc(CN4CCC(N5CC=C(c6cccc(Cl)c6Cl)CC5)C(F)(F)C4)c3F)C2=O)C(=O)N1 (centres unmarked) | 1d7 (50% ≤ 1d7 < 60%)

same assay, conditions: SW620 cells; 500 nM; 96 hours

Row | Structure (SMILES) | Inhibition Rate at 500 nM (%)
4 | O=C1CCC(N2Cc3c(ccc(CN4CCC(N5CC=C(c6cccc(Cl)c6Cl)CC5)C(F)(F)C4)c3F)C2=O)C(=O)N1 (centres unmarked) | 1d9 (70% ≤ 1d9 < 80%)

test system: Human myeloid monocytic leukemia cell (MV-4-11); assay: as above; conditions: MV-4-11 cells; 10 nM; 96 hours

Row | Structure (SMILES) | Inhibition Rate at 10 nM (%)
5 | CC1(C)CCC(C(=O)N2CCN(C3CCN(Cc4ccc5c(c4)C(=O)N(C4CCC(=O)NC4=O)C5)CC3(F)F)CC2)=C(c2ccc(Cl)cc2)C1 (centres unmarked) | 1a7 (50% ≤ 1a7 < 60%)
6 | O=C1CCC(N2Cc3c(ccc(CN4CCC(N5CC=C(c6cccc(Cl)c6Cl)CC5)C(F)(F)C4)c3F)C2=O)C(=O)N1 (centres unmarked) | 1a10 (80% ≤ 1a10 < 100%)

same assay, conditions: MV-4-11 cells; 500 nM; 96 hours

Row | Structure (SMILES) | Inhibition Rate at 500 nM (%)
7 | CC1(C)CCC(C(=O)N2CCN(C3CCN(Cc4ccc5c(c4)C(=O)N(C4CCC(=O)NC4=O)C5)CC3(F)F)CC2)=C(c2ccc(Cl)cc2)C1 (centres unmarked) | 1a7 (50% ≤ 1a7 < 60%)
8 | O=C1CCC(N2Cc3c(ccc(CN4CCC(N5CC=C(c6cccc(Cl)c6Cl)CC5)C(F)(F)C4)c3F)C2=O)C(=O)N1 (centres unmarked) | 1a10 (80% ≤ 1a10 < 100%)

test system: Human acute T lymphocytic leukemia cell (Molt4); assay: as above; conditions: Molt4 cells; 10 nM; 96 hours

Row | Structure (SMILES) | Inhibition Rate at 10 nM (%)
9 | O=C1CCC(N2Cc3c(ccc(CN4CCC(N5CC=C(c6cccc(Cl)c6Cl)CC5)C(F)(F)C4)c3F)C2=O)C(=O)N1 (centres unmarked) | 1c11 (80% ≤ 1c11 ≤ 100%)

same assay, conditions: Molt4 cells; 500 nM; 96 hours

Row | Structure (SMILES) | Inhibition Rate at 500 nM (%)
10 | O=C1CCC(N2Cc3c(ccc(CN4CCC(N5CC=C(c6cccc(Cl)c6Cl)CC5)C(F)(F)C4)c3F)C2=O)C(=O)N1 (centres unmarked) | 1c11 (80% ≤ 1c11 ≤ 100%)

test system: IL-2; assay: Inflammatory cytokine release from PBMCs induced by PHA (flow cytometry CBA); conditions: 0.1 µM; PBMCs, PHA 1 µg/mL, 24 h

Row | Structure (SMILES) | Inhibition Rate (%) IL-2
11 | CC1(C)CCC(C(=O)N2CCN(C3CCN(Cc4ccc5c(c4)C(=O)N(C4CCC(=O)NC4=O)C5)CC3(F)F)CC2)=C(c2ccc(Cl)cc2)C1 (centres unmarked) | IV11 (60% < IV11 ≤ 70%)

same assay, conditions: 1 µM; PBMCs, PHA 1 µg/mL, 24 h

Row | Structure (SMILES) | Inhibition Rate (%) IL-2
12 | CC1(C)CCC(C(=O)N2CCN(C3CCN(Cc4ccc5c(c4)C(=O)N(C4CCC(=O)NC4=O)C5)CC3(F)F)CC2)=C(c2ccc(Cl)cc2)C1 (centres unmarked) | IV1 1

test system: TNF-α; assay: as above; conditions: 0.1 µM, PHA 1 µg/mL, 24 h

Row | Structure (SMILES) | Inhibition Rate (%) TNF-α
13 | CC1(C)CCC(C(=O)N2CCN(C3CCN(Cc4ccc5c(c4)C(=O)N(C4CCC(=O)NC4=O)C5)CC3(F)F)CC2)=C(c2ccc(Cl)cc2)C1 (centres unmarked) | IV9 (40% < IV9 ≤ 50%)

same assay, conditions: 1 µM, PHA 1 µg/mL, 24 h

Row | Structure (SMILES) | Inhibition Rate (%) TNF-α
14 | CC1(C)CCC(C(=O)N2CCN(C3CCN(Cc4ccc5c(c4)C(=O)N(C4CCC(=O)NC4=O)C5)CC3(F)F)CC2)=C(c2ccc(Cl)cc2)C1 (centres unmarked) | IV6 (10% < IV6 ≤ 20%)

biological target: CRBN (Homo sapiens, UniProt Q96SW2); assay: CRBN binding affinity by HTRF (CEREBLON BINDING kit); conditions: CRBN binding, HTRF, compound at 0.5 µM

Row | Structure (SMILES) | Inhibition Rate at 0.5 µM (%)
15 | CC1(C)CCC(C(=O)N2CCN(C3CCN(Cc4ccc5c(c4)C(=O)N(C4CCC(=O)NC4=O)C5)CC3(F)F)CC2)=C(c2ccc(Cl)cc2)C1 (centres unmarked) | a6 (60% < a6 ≤ 70%)
16 | O=C1CCC(N2Cc3c(ccc(CN4CCC(N5CC=C(c6cccc(Cl)c6Cl)CC5)C(F)(F)C4)c3F)C2=O)C(=O)N1 (centres unmarked) | a4 (40% < a4 ≤ 53%)

same assay, conditions: CRBN binding, HTRF, compound at 2 µM

Row | Structure (SMILES) | Inhibition Rate at 2 µM (%)
17 | CC1(C)CCC(C(=O)N2CCN(C3CCN(Cc4ccc5c(c4)C(=O)N(C4CCC(=O)NC4=O)C5)CC3(F)F)CC2)=C(c2ccc(Cl)cc2)C1 (centres unmarked) | a8 (80% < a8 ≤100%)
18 | O=C1CCC(N2Cc3c(ccc(CN4CCC(N5CC=C(c6cccc(Cl)c6Cl)CC5)C(F)(F)C4)c3F)C2=O)C(=O)N1 (centres unmarked) | a5 (53% < a5 ≤ 60%)

biological target: GSPT1 (Homo sapiens, UniProt P15170+Q96SW2); assay: Western blot assay of substrate protein degradation in hPBMCs; conditions: 24 hours treatment, compounds at 50 nM and 500 nM (concentration behind the class not stated)

Row | Structure (SMILES) | substrate protein remaining % (GSPT1)
19 | O=C1CCC(N2Cc3c(ccc(CN4CCC(N5CC=C(c6cccc(Cl)c6Cl)CC5)C(F)(F)C4)c3F)C2=O)C(=O)N1 (centres unmarked) | A (0% ≤ substrate protein remaining % ≤ 80%)

biological target: IKZF2 (Homo sapiens, UniProt Q96SW2+Q9UKS7); assay: as above; conditions: 24 hours treatment, compounds at 50 nM and 500 nM (concentration behind the class not stated)

Row | Structure (SMILES) | substrate protein remaining % (IKZF2)
20 | O=C1CCC(N2Cc3c(ccc(CN4CCC(N5CC=C(c6cccc(Cl)c6Cl)CC5)C(F)(F)C4)c3F)C2=O)C(=O)N1 (centres unmarked) | A (0% ≤ substrate protein remaining % ≤ 80%)

biological target: CK1α (Homo sapiens, UniProt P48729+Q96SW2); assay: as above; conditions: 24 hours treatment, compounds at 50 nM and 500 nM (concentration behind the class not stated)

Row | Structure (SMILES) | substrate protein remaining % (CK1a)
21 | O=C1CCC(N2Cc3c(ccc(CN4CCC(N5CC=C(c6cccc(Cl)c6Cl)CC5)C(F)(F)C4)c3F)C2=O)C(=O)N1 (centres unmarked) | A (0% ≤ substrate protein remaining % ≤ 80%)

biological target: WEE1 (Homo sapiens, UniProt P30291+Q96SW2); assay: as above; conditions: 24 hours treatment, compounds at 50 nM and 500 nM (concentration behind the class not stated)

Row | Structure (SMILES) | substrate protein remaining % (WEE1)
22 | O=C1CCC(N2Cc3c(ccc(CN4CCC(N5CC=C(c6cccc(Cl)c6Cl)CC5)C(F)(F)C4)c3F)C2=O)C(=O)N1 (centres unmarked) | A (0% ≤ substrate protein remaining % ≤ 80%)

biological target: IKZF1 (Homo sapiens, UniProt Q13422+Q96SW2); assay: as above; conditions: 24 hours treatment, compounds at 50 nM and 500 nM (concentration behind the class not stated)

Row | Structure (SMILES) | substrate protein remaining % (IKZF 1)
23 | O=C1CCC(N2Cc3c(ccc(CN4CCC(N5CC=C(c6cccc(Cl)c6Cl)CC5)C(F)(F)C4)c3F)C2=O)C(=O)N1 (centres unmarked) | A (0% ≤ substrate protein remaining % ≤ 80%)

biological target: IKZF3 (Homo sapiens, UniProt Q96SW2+Q9UKT9); assay: as above; conditions: 24 hours treatment, compounds at 50 nM and 500 nM (concentration behind the class not stated)

Row | Structure (SMILES) | substrate protein remaining % (IKZF3)
24 | O=C1CCC(N2Cc3c(ccc(CN4CCC(N5CC=C(c6cccc(Cl)c6Cl)CC5)C(F)(F)C4)c3F)C2=O)C(=O)N1 (centres unmarked) | A (0% ≤ substrate protein remaining % ≤ 80%)

test system: GM-CSF; assay: Inflammatory cytokine release from PBMCs induced by PMA + Ionomycin (flow cytometry CBA); conditions: 0.1 µM, 24 h

Row | Structure (SMILES) | Inhibition Rate (%) GM-CSF
25 | CC1(C)CCC(C(=O)N2CCN(C3CCN(Cc4ccc5c(c4)C(=O)N(C4CCC(=O)NC4=O)C5)CC3(F)F)CC2)=C(c2ccc(Cl)cc2)C1 (centres unmarked) | IV10 (50% < IV 10 ≤ 60%)

same assay, conditions: 1 µM, 24 h

Row | Structure (SMILES) | Inhibition Rate (%) GM-CSF
26 | CC1(C)CCC(C(=O)N2CCN(C3CCN(Cc4ccc5c(c4)C(=O)N(C4CCC(=O)NC4=O)C5)CC3(F)F)CC2)=C(c2ccc(Cl)cc2)C1 (centres unmarked) | IV8 (30% < IV8 ≤ 40%)
